Assay results reported in patent EP4837910A1, “ISOXAZOLINE COMPOUND AND PREPARATION METHOD THEREFOR, HERBICIDAL COMPOSITION, AND USE” (dated 2026).

What was measured:
Triticum aestivum = test: Pre-emergence test, crop damage (greenhouse, sprayed immediately after sowing); conditions: Dosage 240 g a.i./ha, after 4 weeks in greenhouse, fresh weight control rate
[1] = system: Monocotyledonous and dicotyledonous weed; test: Pre-emergence test on weeds (greenhouse, sprayed immediately after sowing); conditions: Dosage 240 g a.i./ha, after 4 weeks in greenhouse, fresh weight control rate
Zea mays = test: Pre-emergence test, crop damage (greenhouse, sprayed immediately after sowing); conditions: Dosage 240 g a.i./ha, after 4 weeks in greenhouse, fresh weight control rate
[2] = system: Monocotyledonous and dicotyledonous weed; test: Post-emergence test on weeds (greenhouse, spray tower); conditions: after 3 weeks of cultivation in a greenhouse, fresh weight control rate

| SMILES | activity level of plant damage (growth control rate), Triticum aestivum (Triticum aestivum) | activity level of plant damage (growth control rate), Digitaria sanguinalis [1] | activity level of plant damage (growth control rate), Setaria viridis [1] | activity level of plant damage (growth control rate), Lolium multiflorum [1] | activity level of plant damage (growth control rate), Zea mays (Zea mays) | Avena fatua, activity level of plant damage (growth control rate) ([2]; Dosage 240 g a.i./ha) | Digitaria sanguinalis, activity level of plant damage (growth control rate) ([2]; Dosage 240 g a.i./ha) | Echinochloa crus-galli, activity level of plant damage (growth control rate) ([2]; Dosage 240 g a.i./ha) | Avena fatua, activity level of plant damage (growth control rate) ([2]; Dosage 120 g a.i./ha) | activity level of plant damage (growth control rate), Descurainia sophia [1] | Amaranthus retroflexus, activity level of plant damage (growth control rate) ([2]; Dosage 240 g a.i./ha) |
| --- | --- | --- | --- | --- | --- | --- | --- | --- | --- | --- | --- |
| C=C(C)[C@@]1(C(=O)N[C@@H](C)C(=O)N(CC)OC)CC(c2cc(F)cc(F)c2)=NO1 | 2 (Level 2: growth control rate greater than or equal to 10% and less than 20%) | 9 | 9 | – | – | – | – | – | – | – | – |
| C=C(C)[C@@]1(C(=O)N[C@@H](C)C(=O)N(C)OC)CC(c2cc(Cl)cc(OC(F)(F)F)c2)=NO1 | 0 | 9 | 9 | 5 (Level 5: growth control rate greater than or equal to 50% and less than 70%) | – | – | – | – | – | – | – |
| C=C[C@]1(C(=O)N[C@@H](C)C(=O)NOC)CC(c2cc(F)cc(F)c2)=NO1 | – | 5 (Level 5: growth control rate greater than or equal to 50% and less than 70%) | 5 (Level 5: growth control rate greater than or equal to 50% and less than 70%) | 8 (Level 8: growth control rate greater than or equal to 90% and less than 100%) | 1 (Level 1: growth control rate less than 10%) | 9 | 9 | 8 (Level 8: growth control rate greater than or equal to 90% and less than 100%) | – | – | – |
| C=C[C@]1(C(=O)N[C@@H](C)C(=O)N(C)OC)CC(c2cc(Br)cc(Br)c2)=NO1 | – | 9 | 9 | 8 (Level 8: growth control rate greater than or equal to 90% and less than 100%) | 0 | – | – | – | 9 | – | – |
| C=C[C@]1(C(=O)N[C@@H](C)C(=O)NOC)CC(c2cc(F)cc(Cl)c2)=NO1 | – | – | – | 9 | 0 | – | 6 (Level 6: growth control rate greater than or equal to 70% and less than 80%) | – | – | 9 | – |
| C=C[C@]1(C(=O)N[C@@H](C)C(=O)N(C)OC)CC(c2cc(F)cc(Cl)c2)=NO1 | – | 9 | 9 | 9 | 2 (Level 2: growth control rate greater than or equal to 10% and less than 20%) | 9 | – | – | – | 9 | – |
| C=C[C@]1(C(=O)N[C@@H](C)C(=O)NOC)CC(c2cc(Cl)cc(Cl)c2)=NO1 | – | – | – | 9 | 0 | – | 8 (Level 8: growth control rate greater than or equal to 90% and less than 100%) | – | – | 5 (Level 5: growth control rate greater than or equal to 50% and less than 70%) | 5 (Level 5: growth control rate greater than or equal to 50% and less than 70%) |
| C=C(C)C1(C(=O)N[C@@H](C)C(=O)NOCC)CC(c2cc(F)cc(F)c2)=NO1 (stereo partly drawn) | – | 9 | 9 | 9 | 2 (Level 2: growth control rate greater than or equal to 10% and less than 20%) | 9 | 8 (Level 8: growth control rate greater than or equal to 90% and less than 100%) | 9 | – | 9 | – |
